According to patent publication US20250345458A1, “COMPLEXING AGENT SALT FORMULATIONS OF PHARMACEUTICAL COMPOUNDS AT LOW STOICHIOMETRIC RATIOS” (Bexson Biomedical, Inc., priority 2022, published 2025):

Test: API-CapAcid salts prepared in ethanol, then 70 mg of solid added to 1 mL water (visual)
Format: physicochemical
Conditions: Method 2: FB dissolved in 22 mL ethanol, then CapAcid 1 molar equivalent added
Protocol: In order to make sure that the issue of the poorly soluble API-Cap formulations prepared at the 70 mg/mL concentration was not due to a failure of the API-Cap salt to form in aqueous conditions, these salts were also prepared in ethanol. This would ensure better solubility of the API FB ensuring a chance to react with the solubilized CapAcid in solution. […] The resulting solid API-CapAcid salts were then obtained as solids by evaporation of the ethanol, followed by lyophilization. […] Thus, some amines due to poor solubility remained poorly soluble as the Cap Acid salt. […] Whereas those with moderate-to-good solubility were successful. […] API-CapAcid salts likely show improved solubility over standard API-acid salts used in the art (e.g., HCl, HBr, fumarate, acetate, mesylate, etc). Furthermore, given the multiple ionic side chains in SBEBCD, the solubility can be tuned and optimized by using different API:SBEBCD ratios (e.g., 6.5:1, 5:1, 4:1, 3:1, 2:1, 1:1).
In a scintillation vial, a solution of API FB (100 mg) and CapAcid (1 molar equivalent, moisture corrected) was prepared by dissolving Cap Acid in 200 proof ethanol (5 mL) and then adding the freebase API. […] Whether or not the freebase dissolved after the second addition of ethanol, the initial pH, prior to titration, was recorded. The vial was then wrapped in foil and left uncovered in the hood to allow the ethanol to evaporate. […]

For COc1ccccc1OCCNCC(O)COc1cccc2[nH]c3ccccc3c12 (stereo not shown) [Carvedilol], the “pH of the ethanol solution” value was 7.56.
